Assay results reported in patent publication US20090041897A1, “Transparent, concentrated liquid nutritional supplement composition” (priority 2007, published 2009).

Experiment: solubility, turbidity and stability of ingredients in water
Type: physicochemical
Details: minerals considered for the concentrate
Protocol: In the embodiment of the current invention, each ingredient is screened for solubility in water and for producing transparent liquid without any turbidity or observed opaqueness. Each ingredient or nutrient is evaluated at suitable concentration (based on actual usage level) in 100 ml deionized water enclosed in glass bottle and checked for turbidity. Only non turbidity producing materials (estimated at 25 NTU or less) were selected. Visual evaluation also conducted to ensure clear liquids are obtained. Solutions with an estimated 30 NTG and above are eliminated as potential ingredients. Bottles were also checked for precipitated solids at 0, 2, 4, 6, 8, 10 and 24 hours at room temperature. If precipitate is observed, the ingredient/nutrient is rendered unusable for producing appealing liquid nutritional supplement. Furthermore, ingredients are evaluated in a final diluted liquid nutritional supplement and/or diluents to ensure that dilution will not change the physical appearance of concentrates. […] Each ingredient or nutrient is evaluated at suitable concentration (based on actual usage level) in 100 ml deionized water enclosed in glass bottle and checked turbidity. […] Furthermore, ingredients are evaluated in a final diluted liquid nutritional supplement to ensure that dilution will not change the physical appearance of concentrates. […]

[Ca+2] [calcium]
effect on clarity of concentrate and finished liquid nutritional supplement: induce cloudiness and turbidity | solubility: not soluble
